Ki data for one compound are collected here from ChEMBL document CHEMBL1146151, “Polyoxometalates--a new class of potent ecto-nucleoside triphosphate diphosphohydrolase (NTPDase) inhibitors” (Bioorg Med Chem Lett, 2006).

This experiment has as its target T1, Ectonucleoside triphosphate diphosphohydrolase 2 (Rattus norvegicus, UniProt O35795).
T1 sequence (O35795 whole entry): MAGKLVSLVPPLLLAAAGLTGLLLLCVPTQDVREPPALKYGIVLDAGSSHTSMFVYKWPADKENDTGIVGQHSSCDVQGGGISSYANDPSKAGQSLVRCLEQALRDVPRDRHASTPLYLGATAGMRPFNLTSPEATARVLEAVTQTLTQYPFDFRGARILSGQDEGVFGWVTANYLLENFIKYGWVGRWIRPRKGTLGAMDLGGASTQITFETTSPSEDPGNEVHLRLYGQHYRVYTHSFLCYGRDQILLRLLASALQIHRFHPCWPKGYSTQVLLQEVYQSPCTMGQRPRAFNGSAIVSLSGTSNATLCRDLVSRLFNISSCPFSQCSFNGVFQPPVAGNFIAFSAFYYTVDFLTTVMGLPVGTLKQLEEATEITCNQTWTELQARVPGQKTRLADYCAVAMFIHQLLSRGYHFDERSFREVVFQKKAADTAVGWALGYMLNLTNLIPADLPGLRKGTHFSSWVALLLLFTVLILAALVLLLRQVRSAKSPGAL
As to the kind of experiment: Inhibition of rat recombinant NTPDase2 expressed in CHO cells. The class given is cell-based.

For `Nc1c(S(=O)(=O)O)cc(Nc2ccc(Nc3nc(Cl)nc(Nc4cccc(S(=O)(=O)O)c4)n3)c(S(=O)(=O)O)c2)c2c1C(=O)c1ccccc1C2=O` [RB 2], the Ki is 24.2 µM.

Usually Ki stands for the equilibrium dissociation constant of an inhibitor or competing ligand from its target.
